Measurements published in patent publication EP0514133A1, “Benzodiazepine derivatives, compositions containing them and their use in therapy” (priority 1991, dated 1992).

Chains of the proteins cited; added tags and fusions are not shown.
UniProt P30551, whole entry: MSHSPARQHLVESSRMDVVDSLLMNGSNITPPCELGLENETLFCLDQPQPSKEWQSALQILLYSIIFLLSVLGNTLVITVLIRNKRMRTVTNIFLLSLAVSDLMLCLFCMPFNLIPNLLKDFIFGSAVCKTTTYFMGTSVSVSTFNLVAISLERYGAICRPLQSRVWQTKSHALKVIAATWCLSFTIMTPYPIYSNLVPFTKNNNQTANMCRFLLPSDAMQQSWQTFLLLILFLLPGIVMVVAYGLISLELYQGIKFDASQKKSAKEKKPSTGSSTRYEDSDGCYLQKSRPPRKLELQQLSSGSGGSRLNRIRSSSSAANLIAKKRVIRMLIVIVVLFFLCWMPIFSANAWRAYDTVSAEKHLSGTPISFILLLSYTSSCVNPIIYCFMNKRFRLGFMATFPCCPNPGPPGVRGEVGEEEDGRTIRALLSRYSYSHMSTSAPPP

Target: T1, CCK receptor (pancreas) (Rattus norvegicus, UniProt P30551)
T1 construct: The whole pancreas was dissected free of fat tissue and was homogenized; from tissue; host or cells: rat pancreas membrane homogenate
Assay: biochemical
Format: binding
Settings: IC50 ^125I-CCK Pancreas, rat pancreas membranes, 50 pM 125I-CCK-8, 25°C 2 hours
Method: CCK-8 sulphated was radiolabelled with ¹²⁵I-Bolton Hunter reagent (2000 Ci/mmole). Receptor binding was performed according to Chang and Lotti (Proc. Natl. Acad. Sci. 83, 4923-4926, 1986) with minor modifications.
Male Sprague-Dawley rats (150-200g) were sacrificed by decapitation. The whole pancreas was dissected free of fat tissue and was homogenized in 25 volumes of ice-cold 10 mM N-2-hydroxyethyl-piperazine-N′-2-ethane sulphonic acid (HEPES) buffer with 0.1% soya bean trypsin inhibitor (pH 7.4 at 25°C) with a Kinematica Polytron. The homogenates were centrifuged at 47,800 g for 10 min. Pellets were resuspended in 10 volumes of binding assay buffer (20mM (HEPES)), 1mM ethylene glycol-bis-(β-aminoethylether-N,N′-tetraacetic acid) (EGTA), 5mM MgCl₂, 150 mM NaCl, bacitracin 0.25 mg/ml, soya bean trypsin inhibitor 0.1 mg/ml, and bovine serum albumin 2 mg/ml pH 6.5 at 25°C) using a Teflon (trademark) homogenizer, 15 strokes at 500 rpm. […] The radioactivity on the filters was counted with a LKB gamma counter.
Drug displacement studies were performed with at least 10 concentrations of compounds of Formula I and the IC₅₀ values were determined by regression analysis IC₅₀ refers to the concentration of the compound required to inhibit 50% of specific binding of ¹²⁵I-CCK-8.

Row | SMILES | IC50 [nM]
1 | Cc1cccc(NC(=O)NC2N=C(C3CCCCC3)c3ccccc3N(C)C2=O)c1 (racemic) [Example 1, N-[3(R,S)-5-Cyclohexyl-2,3-dihydro-1-methyl-2-oxo-1H-1,4-benzodiazepin-3-yl] N′-[3-methylphenyl] urea] | 1.5
2 | Cc1cccc(NC(=O)NC2N=C(C3CCCCC3)c3ccccc3N(C)C2=O)c1 (single isomer, unassigned) [7 (Peak A)] | 1700
